Experiments:
Test in all cases: competition with labeled probe peptide, purified HLA class I
[1] = target: HLA-B*1801 (human)
[2] = target: HLA-B*4501 (human)
[3] = target: HLA-B*4001 (human)

IC50 [1] | IC50 [2] | IC50 [3] | Substance
17.7 µM | 15.1 µM |  | SEQ ID NO 717, 7-mer of MAGE2 at position 234 (printed as WEELSML) (peptide)
8.29 µM |  | 6.58 µM | SEQ ID NO 718, 7-mer of MAGE2 at position 252 (printed as WEELSML) (peptide)

— patent US20060094649A1
